# Results taken from patent publication US10485739B2, “High strength microcapsules” (ENCAPSYS, LLC, priority 2014, dated 2019).
# Assay: Monomer solubility in water (GC/MS of water phase)
# Assay type: physicochemical
# Details: @ 25° C.; monomer equilibrated with deionized water 24 hours
# Procedure: Monomer Solubility in Water
# Solubility of the monomers in water is determined by combining 5 g of monomer and 5 g of deionized water in a sealed 20 ml vial for 30 min, after which the sample is allowed to sit at room temperature for 24 hours to establish equilibrium and phase separation of monomer from water. The water phase was then removed and analyzed to determine the monomer concentration GC/MS (7890B GC with a 5977A MSD Mass Spectrophotometer), both from Agilent. Inlet temperature at 270 C. Ramp starting at 100° C. to 320° C. at 10 degrees per min. The mass spec was scanning from a molecular weight of 30-500. The GC column was a Agilent DB-SMS 30M×0.250 mm.
row,Substance,Solubility in water
1,ethoxylated (30) bisphenol A diacrylate [SR9038],soluble
2,Ethoxylated (4) bisphenol A diacrylate [SR601],450 µg/mL
